Test results published in US20240166755A1, “CHIMERIC ANTIGEN RECEPTORS TARGETING CANCER” (University of Southern California, priority 2016, published 2024).

B1: CD8SP-MPL-VB22Bw4-(vL-vH)-Myc-CD28z-T2A-PAC(031615-B06): CAR construct targeting MPL, VB22Bw4 scFv, CD28 costimulatory domain (protein)
chain: MALPVTALLLPLALLLHAARPDDIVMTQSPLSLPVTPGEPASISCRSSKSLLHSNGNTYLYWFLQKPGQSPQLLIYRMSNLASGVPDRFSGSGSGTDFTLKISRVEAEDVGVYYFMQHIEYPFTFGQGTKLEIKGGGGSGGGGSGGGGSQVQLVQSGPEVKKPGASVKVSCKASGYTFTNSWMNWVRQRPGKGLEWIGRIYPGDGETIYNGKFRVRVTITADESTSTAYMQLSSLRSEDTAVYYCARGYDDYSFAYWGQGTTVTVSSTREQKLISEEDLKIEVMYPPPYLDNEKSNGTIIHVKGKHLCPSPLFPGPSKPFWVLVVVGGVLACYSLLVTVAFIIFWVRSKRSRLLHSDYMNMTPRRPGPTRKHYQPYAPPRDFAAYRSRVKFSRSADAPAYQQGQNQLYNELNLGRREEYDVLDKRRGRDPEMGGKPRRKNPQEGLYNELQKDKMAEAYSEIGMKGERRRGKGHDGLYQGLSTATKDTYDALHMQALPPRSSGSGEGRGSLLTCGDVEENPGPHMTEYKPTVRLATRDDVPRAVRTLAAAFADYPATRHTVDPDRHIERVTELQELFLTRVGLDIGKVWVADDGAAVAVWTTPESVEAGAVFAEIGPRMAELSGSRLAAQQQMEGLLAPHRPKEPAWFLATVGVSPDHQGKGLGSAVVLPGVEAAERAGVPAFLETSAPRNLPFYERLGFTVTADVEVPEGPRTWCMTRKPGA
modifications: listed as DNA
notes: CAR construct targeting MPL, VB22Bw4 scFv, CD28 costimulatory domain
B2: CD8SP-4C3-(vL-vH)-Myc-CD28z-T2A-Pac(031615-WO5): control CAR (4C3 scFv, CD28z) (protein)
chain: MALPVTALLLPLALLLHAARPDIVMTQSPSSLTMSVGQKVTMSCKSSHSLLNSRNQKNYLAWFQQKPGQSPKLLVYFASTRESGVPDRFIGSGSGTDFTLTISNVQAEDLADYFCQQHYTTLPTFGGGTKLEIKGGGGSGGGGSGGGGSQIQLVQSGPDLKKPGETVKISCKASGYTFTNTGMNWVKQAPGKGLKWMGWINTYTGEPTYADDFKGRFTFSLETSASTAYLQINNLKNEDTATYFCTRWGYGSSLYYAMDYWGQGTSVTVSSTREQKLISEEDLKIEVMYPPPYLDNEKSNGTIIHVKGKHLCPSPLFPGPSKPFWVLVVVGGVLACYSLLVTVAFIIFWVRSKRSRLLHSDYMNMTPRRPGPTRKHYQPYAPPRDFAAYRSRVKFSRSADAPAYQQGQNQLYNELNLGRREEYDVLDKRRGRDPEMGGKPRRKNPQEGLYNELQKDKMAEAYSEIGMKGERRRGKGHDGLYQGLSTATKDTYDALHMQALPPRSSGSGEGRGSLLTCGDVEENPGPHMTEYKPTVRLATRDDVPRAVRTLAAAFADYPATRHTVDPDRHIERVTELQELFLTRVGLDIGKVWVADDGAAVAVWTTPESVEAGAVFAEIGPRMAELSGSRLAAQQQMEGLLAPHRPKEPAWFLATVGVSPDHQGKGLGSAVVLPGVEAAERAGVPAFLETSAPRNLPFYERLGFTVTADVEVPEGPRTWCMTRKPGA
modifications: listed as DNA
B3: CD8SP-AB317-(vL-vH)-Myc-CD28z-T2A-PAC(031615-T04): CAR construct targeting MPL, AB317 scFv, CD28 costimulatory domain (protein)
chain: MALPVTALLLPLALLLHAARPDIVLTQSPASLAVSLGQSVTISCRASESVEYYGTSLMQWYQQKPGQPPKLLIYGASNVESGVPARFSGSGSGTDFSLNIHPVEEDDIAMYFCQQSRKVPWTFGGGTKLEIKGGGGSGGGGSGGGGSEVKLVESGGGLVKPGGSRKLSCAASGFTFSSYTMSWVRQTPAKRLEWVATISSGSSTIYYADTVKGRFTISRDNAKNTLFLQMTSLRSEDTAMYYCARRWFLDCWGQGTTLTVSSTREQKLISEEDLKIEVMYPPPYLDNEKSNGTIIHVKGKHLCPSPLFPGPSKPFWVLVVVGGVLACYSLLVTVAFIIFWVRSKRSRLLHSDYMNMTPRRPGPTRKHYQPYAPPRDFAAYRSRVKFSRSADAPAYQQGQNQLYNELNLGRREEYDVLDKRRGRDPEMGGKPRRKNPQEGLYNELQKDKMAEAYSEIGMKGERRRGKGHDGLYQGLSTATKDTYDALHMQALPPRSSGSGEGRGSLLTCGDVEENPGPHMTEYKPTVRLATRDDVPRAVRTLAAAFADYPATRHTVDPDRHIERVTELQELFLTRVGLDIGKVWVADDGAAVAVWTTPESVEAGAVFAEIGPRMAELSGSRLAAQQQMEGLLAPHRPKEPAWFLATVGVSPDHQGKGLGSAVVLPGVEAAERAGVPAFLETSAPRNLPFYERLGFTVTADVEVPEGPRTWCMTRKPGA
modifications: listed as DNA
notes: CAR construct targeting MPL, AB317 scFv, CD28 costimulatory domain
B4: CD8SP-12E10-(vL-vH)-Myc-CD28z-T2A-PAC(031615-S03): CAR construct targeting MPL, 12E10 scFv, CD28 costimulatory domain (protein)
chain: MALPVTALLLPLALLLHAARPDQVQLQQSGPGLVKPSETLSLTCTVSGDSISSYYWSWIRQPPGKGLEWIGYIYYSGSTNYNPSLKSRVTISVDTSKSQFSLKLSSVTAADTAVYYCARGRYFDVWGRGTMVTSSGGGGSGGGGSGGGGSSSYVLTQPPSVSGSPGQSITISCTGTSSDVGGYNYVSWYQQHPGKAPKLMIYEGSKRPSGVSNRFSGSKSGNTASLTISGLQAEDEADYYCSSYTTRSTRVFGGGTKLTVLGAAATREQKLISEEDLKIEVMYPPPYLDNEKSNGTIIHVKGKHLCPSPLFPGPSKPFWVLVVVGGVLACYSLLVTVAFIIFWVRSKRSRLLHSDYMNMTPRRPGPTRKHYQPYAPPRDFAAYRSRVKFSRSADAPAYQQGQNQLYNELNLGRREEYDVLDKRRGRDPEMGGKPRRKNPQEGLYNELQKDKMAEAYSEIGMKGERRRGKGHDGLYQGLSTATKDTYDALHMQALPPRSSGSGEGRGSLLTCGDVEENPGPHMTEYKPTVRLATRDDVPRAVRTLAAAFADYPATRHTVDPDRHIERVTELQELFLTRVGLDIGKVWVADDGAAVAVWTTPESVEAGAVFAEIGPRMAELSGSRLAAQQQMEGLLAPHRPKEPAWFLATVGVSPDHQGKGLGSAVVLPGVEAAERAGVPAFLETSAPRNLPFYERLGFTVTADVEVPEGPRTWCMTRKPGA
modifications: listed as DNA
notes: CAR construct targeting MPL, 12E10 scFv, CD28 costimulatory domain

Target: T1, extracellular domain (ECD) of human MPL (Homo sapiens, UniProt P40238)
T1 construct: made in house; host or cells: 293FT cells, conditioned medium used unpurified
Assay: NLuc assay to detect CAR: binding of MPL-ECD-GGSG-NLuc-AcV5 supernatant to CAR-expressing cells
Conditions: T cells expressing the CAR
From the text: A frequent problem in the field of chimeric antigen receptors is lack of a sensitive and specific assay that can detect cells that express chimeric antigen receptors. To detect the expression of CAR targeting CD19 and MPL, we fused the extracellular domains (ECD) of human CD19 and human MPL, including their signal peptides, in frame with nucleotide sequence encoding a Gly-Gly-Ser-Gly linker, NLuc (without a secretory signal) and an AcV5 epitope tag. In the case of CD19 construct, a FLAG tag was inserted between the signal peptide and the beginning of the extracellular domain. The whole cassette was cloned downstream of the human EF1α promoter into the lentiviral vector pLenti-EF1 to make constructs pLenti-EF1-FLAG-CD19-ECD-GGSG-NLuc-AcV5 and pLenti-EF1-MPL-ECD-GGSG-NLuc-AcV5, respectively. The nucleic acid sequences of the insert fragments are provided in SEQ ID NO: 926 and SEQ ID NO: 925, respectively. The protein sequences of the insert fragments are provided in SEQ ID NO: 2671 and SEQ ID NO: 2670, respectively. The constructs were transfected into 293FT cells by calcium phosphate co-precipitation method. Approximately 20 h post-transfection, the cell culture media was replaced with fresh medium. The conditioned media containing the secreted FLAG-CD19-ECD-GGSG-NLuc-AcV5 (also referred to as CD19-GGSG-NLuc-AcV5) and MPL-ECD-GGSG-NLuc-AcV5 (also referred to as MPL-GGSG-NLuc-AcV5) proteins was collected 48-72 h later.
Next day morning, approximately 18 hours post-transfection, cells were collected by pipetting up and down in 1.5 ml tubes. The tubes were spun down at 1500 RPM for 5 minutes. Then the cells were washed once with wash buffer (1% FBS in PBS), followed by incubation with 1001 of indicated secretory forms of GGS NLuc supernatants. The cells were incubated at 4° C. for 1 hour.
After the incubation, cells were washed 5 times with wash buffer (1 ml each wash). Finally the pellet was resuspended in 200 μl wash buffer. Resuspended cells were placed in a 384 well plate in triplicate (25 μl each). Luciferase activity was measured using a BioTek synergy H4 plate reader after addition of NLuc assay buffer (Promega) containing native coelenterazine (25 μl each well) directly to each well (one at a time).
T cells expressing the different MPL CAR constructs were incubated with MPL-GGSG-NLuc-AcV5 and CD19-GGSG-NLuc-AcV5 supernatants and after extensive washes assayed for NLuc activity essentially as described in the preceding example.

Row | Molecule | binding to MPL-GGSG-NLuc AcV5 (NLuc assay)
1 | B1 | strong binding
2 | B2 | no significant binding
3 | B3 | modest binding
4 | B4 | modest binding
